These are literature values, as cited in patent US20110293643A1 (published 2011).

This series relates to rat. The conditions noted are these: rat lung transplantation; cited from earlier work.

Regarding `NC(=O)C1=C(O)C[C@@H]2C[C@@H]3Cc4cccc(O)c4C(=O)C3=C(O)[C@]2(O)C1=O` [COL-3], the “delayed type hypersensitivity responses to donor antigens and type V collagen” value is reported as “suppressed delayed type hypersensitivity”; the rejection pathology result is on record as “did not prevent rejection pathology”.
